Measurements: patent EP0702683B1, “06-SUBSTITUTED GUANINE DERIVATIVES, A PROCESS FOR THEIR PREPARATION AND THEIR USE IN TREATING TUMOUR CELLS” (Cancer Research Technology Limited, priority 1993, dated 1994)

How the values were obtained:
[1] = target: T1, ATase (Homo sapiens, UniProt P16455); test: In vitro ATase inactivation assay with purified recombinant human ATase; assay type: biochemical; design: made in house; conditions: recombinant human ATase incubated with inactivator 1 hour at 37°C before substrate; read-out: I50
T1 sequence (P16455 1-207): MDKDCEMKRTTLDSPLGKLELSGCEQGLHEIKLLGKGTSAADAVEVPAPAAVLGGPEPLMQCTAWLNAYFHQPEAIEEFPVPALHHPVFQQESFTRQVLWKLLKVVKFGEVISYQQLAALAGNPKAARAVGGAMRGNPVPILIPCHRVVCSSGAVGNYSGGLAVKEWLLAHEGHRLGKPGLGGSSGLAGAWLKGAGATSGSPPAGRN
Experimental: The cDNA cloning and overexpression of the human ATase has been reported previously^23. Purification of the recombinant proteins was achieved either by affinity chromatography through a DNA-cellulose column as described by Wilkinson et al.,^25, 26, or by DEAE-cellulose ion-exchange chromatography. For the latter, the ATase protein was partially purified by ammonium sulphate precipitation (30 - 60%) and dialysed against 10 mM Tris-HCl pH 7.5, 1 mM DTT, 2 mM EDTA, 10% glycerol, before loading on a DEAF-cellulose column. The ATase was then eluted with a 0-0.1 M NaCl gradient.
Compounds to be tested were dissolved in DMSO to a final concentration of 10 mM and diluted just before use in buffer I containing 1 mg/ml bovine serum albumin (IBSA). Recombinant ATase was diluted in IBSA and titrated in order that the reaction be conducted under ATase, and not substrate, limiting conditions. In each assay, fixed amounts of ATase (60-75 fmol) were incubated with varying amounts of 0^6-benzylguanine, or test compound in a total volume of 200 µl of IBSA containing 10 µg of calf thymus DNA at 37°C for 1 hour. […] Following acid hydrolysis of the DNA as previously described^21 the [^3H]-methylated protein was recovered and quantitated by liquid scintillation counting. […]

[2] = target: T1, ATase; test: Inactivation of ATase activity in Raji cells; assay type: cell-based; design: endogenous in cells; host or cells: Raji
Experimental: Mammalian cells were cultured under standard conditions. For example, Raji (a human lymphoblastoid cell line from a Burkitt's lymphoma) cells were grown in suspension culture in RPMI medium supplemented with 10% horse serum. A375M cells are human melanoma cells from which the xenografts described below were established following subcutaneous injection into nude mice: WiDr cells are a human colon carcinoma cell line: Hamster+120 cells are a mitozolomide-selected subline of a Chinese hamster lung fibroblast V79 cell line called RJKO: Yoshida cells are a rat carcinosarcoma cell line and YRbus is a busulphan resistant subline thereof: XP cells are an SV40-transformed fibroblast cell line originally from the skin of a Xeroderma pigmentosum patient, pHMGhAT2b cells are a clone of these cells that have been transfected with a mammalian cell expression vector containing the human ATase cDNA and pHMGla cells are a clone that have been transfected with the expression vector only (i.e. one not containing the human ATase cDNA). Cell pellets were resuspended in cold (4°C) buffer I containing 2 µg/ml leupeptin and sonicated for 10 seconds at 12 µ peak to peak distance. After cooling in ice, the cells were sonicated for a further 10 seconds at 18 µ. […]

[3] = target: T1, ATase; test: Inactivation of ATase activity in XP cells; assay type: cell-based; design: endogenous in cells; host or cells: Raji
Experimental: (§1) Mammalian cells were cultured under standard conditions. For example, Raji (a human lymphoblastoid cell line from a Burkitt's lymphoma) cells were grown in suspension culture in RPMI medium supplemented with 10% horse serum. […]
(§2) Cells were diluted to 10^6/ml in culture medium containing either the appropriate concentration of inactivator or an equivalent volume of vehicle (DMSO). […] ATase activity was determined as described above, in duplicate sonicated cell extracts and expressed as the percentage activity remaining based on that present in the untreated controls (for example 350-450 fm/mg in Raji cells).

[4] = target: T1, ATase; test: Inactivation of ATase activity in WiDr cells; assay type: cell-based; design: endogenous in cells; host or cells: Raji
Experimental: as §1, §2

## Nc1nc(OCc2ccccc2)c2nc[nH]c2n1 [O^6-benzylguanine, reference compound]
[1]
  IC50: 40 nM
[2]; Human Raji cells, 2 hours at 37°C (Table 5), read-out: Inactivation of ATase in Mammalian Cells I50(µM) Human Raji
  IC50: 0.1 µM
[2]; Raji cells, 2 hours at 37°C, read-out: Raji I50
  IC50: 0.1 µM
[3]
  IC50: 70 nM
[4]
  IC50: > 90 nM
